Values quoted from earlier work as cited in paper PMC6162346, “The MALDI-TOF E2/E3 Ligase Assay as Universal Tool for Drug Discovery in the Ubiquitin Pathway” (Cell Chemical Biology, 2018).

Test system: MDM2-p53 interaction
Conditions: read-out: IC50 to displace p53 from MDM2; ref Khoury and Domling, 2012; cited from earlier work

nutlin-3A
IC50: 100 to 300 nM
